The values that follow come from publication PMC3510435 (Febs Letters, 2012).

A word on the Km: it is the concentration of substrate that gives half-maximal velocity.

The subject of the series is Nc1ncnc2c1ncn2[C@@H]1O[C@H](COP(=O)(O)OP(=O)(O)OP(=O)(O)O)[C@@H](O)[C@H]1O. Kind of series: purified protein. The settings on record: presumably with KanA co-substrate (100 μM in this experiment), 50 mM Tris-HCl pH 7.5, 40 mM KCl, 1 mM free MgCl2, 25 °C, ATP as MgATP.

“APH(3′)-IIIa (aminoglycoside phosphotransferase(3′)-IIIa) (Enterococcus faecalis)”: the Km stood at 10 µM.
